Columns and labels:
[1] = target: Tyrosine-protein kinase BTK (Homo sapiens) (UniProt Q06187); experiment: Inhibition of BTK (unknown origin) at 1 uM relative to control
[2] = target: Serine/threonine-protein kinase mTOR (Homo sapiens) (UniProt P42345); experiment: Inhibition of mTOR (unknown origin) at 1 uM relative to control
[3] = target: Hepatocyte growth factor receptor (Homo sapiens) (UniProt P08581); experiment: Inhibition of cMet (unknown origin) at 1 uM relative to control
[4] = target: Mitogen-activated protein kinase 1 (Homo sapiens) (UniProt P28482); experiment: Inhibition of ERK2 (unknown origin) at 1 uM relative to control
[5] = target: T1, Serine/threonine-protein kinase PLK4 (Homo sapiens) (UniProt O00444); experiment: Inhibition of PLK4 (unknown origin) at 1 uM relative to control
T1 sequence (whole entry): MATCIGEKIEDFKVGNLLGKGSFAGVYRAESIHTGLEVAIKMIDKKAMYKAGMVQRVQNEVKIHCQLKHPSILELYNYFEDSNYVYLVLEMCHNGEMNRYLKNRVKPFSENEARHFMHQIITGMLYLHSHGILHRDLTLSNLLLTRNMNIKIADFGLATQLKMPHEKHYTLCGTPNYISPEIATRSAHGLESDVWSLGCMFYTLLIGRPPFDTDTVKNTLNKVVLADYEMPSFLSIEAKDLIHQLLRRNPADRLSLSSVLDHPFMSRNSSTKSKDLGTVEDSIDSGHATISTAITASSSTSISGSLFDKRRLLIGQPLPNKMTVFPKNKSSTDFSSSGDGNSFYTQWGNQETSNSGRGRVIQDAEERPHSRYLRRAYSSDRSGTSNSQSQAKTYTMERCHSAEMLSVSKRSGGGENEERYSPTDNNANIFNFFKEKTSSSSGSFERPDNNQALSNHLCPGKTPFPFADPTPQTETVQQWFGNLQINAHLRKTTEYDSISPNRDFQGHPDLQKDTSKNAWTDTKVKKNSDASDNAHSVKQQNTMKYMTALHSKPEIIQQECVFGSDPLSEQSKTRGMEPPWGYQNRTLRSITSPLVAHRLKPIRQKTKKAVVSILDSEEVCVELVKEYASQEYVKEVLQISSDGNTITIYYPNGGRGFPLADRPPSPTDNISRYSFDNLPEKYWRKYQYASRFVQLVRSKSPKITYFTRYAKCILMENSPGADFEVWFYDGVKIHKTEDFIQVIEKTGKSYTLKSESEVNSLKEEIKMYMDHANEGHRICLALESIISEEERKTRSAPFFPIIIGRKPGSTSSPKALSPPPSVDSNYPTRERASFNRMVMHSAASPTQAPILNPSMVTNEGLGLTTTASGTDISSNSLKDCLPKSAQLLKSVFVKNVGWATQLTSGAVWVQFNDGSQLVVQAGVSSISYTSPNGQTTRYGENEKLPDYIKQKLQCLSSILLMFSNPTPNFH

Sequences of proteins named here, by UniProt entry; tags and fusion partners are left off. A change or cut given only in a name is not applied to a line headed by its entry.
UniProt Q06187: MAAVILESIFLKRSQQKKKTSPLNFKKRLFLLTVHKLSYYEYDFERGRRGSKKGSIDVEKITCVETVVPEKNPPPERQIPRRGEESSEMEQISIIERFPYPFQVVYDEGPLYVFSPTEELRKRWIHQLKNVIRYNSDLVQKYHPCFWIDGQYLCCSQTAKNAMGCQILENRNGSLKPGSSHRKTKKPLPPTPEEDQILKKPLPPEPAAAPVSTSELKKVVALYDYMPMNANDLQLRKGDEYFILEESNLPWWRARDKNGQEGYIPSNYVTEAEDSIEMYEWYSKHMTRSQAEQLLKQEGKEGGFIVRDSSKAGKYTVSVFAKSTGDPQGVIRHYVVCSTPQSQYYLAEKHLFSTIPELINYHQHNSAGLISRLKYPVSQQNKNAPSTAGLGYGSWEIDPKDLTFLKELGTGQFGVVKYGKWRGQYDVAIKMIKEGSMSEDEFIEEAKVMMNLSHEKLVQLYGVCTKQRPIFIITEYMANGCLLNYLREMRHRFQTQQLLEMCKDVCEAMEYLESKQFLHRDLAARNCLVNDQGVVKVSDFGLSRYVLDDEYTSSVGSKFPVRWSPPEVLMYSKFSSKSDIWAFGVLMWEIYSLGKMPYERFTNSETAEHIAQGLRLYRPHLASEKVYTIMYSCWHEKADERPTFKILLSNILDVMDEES
UniProt P08581: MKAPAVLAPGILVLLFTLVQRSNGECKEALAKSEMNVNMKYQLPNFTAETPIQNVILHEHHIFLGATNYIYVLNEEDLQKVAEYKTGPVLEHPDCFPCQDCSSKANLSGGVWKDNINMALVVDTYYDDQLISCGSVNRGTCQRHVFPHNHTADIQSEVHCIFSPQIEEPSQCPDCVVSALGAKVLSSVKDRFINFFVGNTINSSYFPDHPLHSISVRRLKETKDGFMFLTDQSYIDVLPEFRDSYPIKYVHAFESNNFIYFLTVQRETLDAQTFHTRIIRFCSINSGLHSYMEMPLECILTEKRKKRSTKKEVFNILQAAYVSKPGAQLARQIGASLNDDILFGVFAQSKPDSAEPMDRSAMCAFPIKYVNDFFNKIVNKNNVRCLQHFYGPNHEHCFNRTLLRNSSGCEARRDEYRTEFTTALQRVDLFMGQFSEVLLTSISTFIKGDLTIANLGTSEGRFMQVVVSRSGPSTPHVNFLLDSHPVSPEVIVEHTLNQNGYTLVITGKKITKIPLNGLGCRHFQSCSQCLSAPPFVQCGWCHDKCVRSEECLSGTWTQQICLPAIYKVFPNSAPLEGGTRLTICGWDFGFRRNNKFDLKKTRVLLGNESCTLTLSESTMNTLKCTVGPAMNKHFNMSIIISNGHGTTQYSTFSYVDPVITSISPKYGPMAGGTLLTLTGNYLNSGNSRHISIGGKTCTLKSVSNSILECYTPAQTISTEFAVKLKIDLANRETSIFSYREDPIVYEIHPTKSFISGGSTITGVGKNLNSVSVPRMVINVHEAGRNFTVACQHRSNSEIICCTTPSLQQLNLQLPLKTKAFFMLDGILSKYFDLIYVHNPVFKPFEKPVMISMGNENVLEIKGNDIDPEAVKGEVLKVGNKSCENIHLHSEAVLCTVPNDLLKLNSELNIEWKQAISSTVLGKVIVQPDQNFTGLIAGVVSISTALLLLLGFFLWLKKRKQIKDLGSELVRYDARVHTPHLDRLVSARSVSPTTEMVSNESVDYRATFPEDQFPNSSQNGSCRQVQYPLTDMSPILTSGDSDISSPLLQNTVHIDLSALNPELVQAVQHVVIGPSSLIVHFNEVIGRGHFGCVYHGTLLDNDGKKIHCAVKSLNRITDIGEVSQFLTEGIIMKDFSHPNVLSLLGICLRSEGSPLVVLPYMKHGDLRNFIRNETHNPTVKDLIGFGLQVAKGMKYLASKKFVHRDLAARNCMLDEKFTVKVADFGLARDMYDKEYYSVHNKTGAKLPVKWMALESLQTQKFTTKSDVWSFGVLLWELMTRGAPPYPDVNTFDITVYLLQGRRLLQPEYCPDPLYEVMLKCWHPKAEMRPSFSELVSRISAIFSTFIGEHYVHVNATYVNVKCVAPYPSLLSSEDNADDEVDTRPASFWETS
UniProt P28482, whole entry: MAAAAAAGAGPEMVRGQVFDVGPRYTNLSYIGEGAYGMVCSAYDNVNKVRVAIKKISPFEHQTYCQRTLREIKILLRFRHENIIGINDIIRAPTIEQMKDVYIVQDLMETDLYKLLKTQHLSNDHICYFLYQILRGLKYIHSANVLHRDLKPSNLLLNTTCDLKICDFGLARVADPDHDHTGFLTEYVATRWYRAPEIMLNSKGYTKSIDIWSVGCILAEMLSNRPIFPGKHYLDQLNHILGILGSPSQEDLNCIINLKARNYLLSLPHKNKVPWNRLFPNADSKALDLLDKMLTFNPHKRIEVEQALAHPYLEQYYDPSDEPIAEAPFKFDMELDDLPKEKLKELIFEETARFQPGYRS
UniProt Q9UM73: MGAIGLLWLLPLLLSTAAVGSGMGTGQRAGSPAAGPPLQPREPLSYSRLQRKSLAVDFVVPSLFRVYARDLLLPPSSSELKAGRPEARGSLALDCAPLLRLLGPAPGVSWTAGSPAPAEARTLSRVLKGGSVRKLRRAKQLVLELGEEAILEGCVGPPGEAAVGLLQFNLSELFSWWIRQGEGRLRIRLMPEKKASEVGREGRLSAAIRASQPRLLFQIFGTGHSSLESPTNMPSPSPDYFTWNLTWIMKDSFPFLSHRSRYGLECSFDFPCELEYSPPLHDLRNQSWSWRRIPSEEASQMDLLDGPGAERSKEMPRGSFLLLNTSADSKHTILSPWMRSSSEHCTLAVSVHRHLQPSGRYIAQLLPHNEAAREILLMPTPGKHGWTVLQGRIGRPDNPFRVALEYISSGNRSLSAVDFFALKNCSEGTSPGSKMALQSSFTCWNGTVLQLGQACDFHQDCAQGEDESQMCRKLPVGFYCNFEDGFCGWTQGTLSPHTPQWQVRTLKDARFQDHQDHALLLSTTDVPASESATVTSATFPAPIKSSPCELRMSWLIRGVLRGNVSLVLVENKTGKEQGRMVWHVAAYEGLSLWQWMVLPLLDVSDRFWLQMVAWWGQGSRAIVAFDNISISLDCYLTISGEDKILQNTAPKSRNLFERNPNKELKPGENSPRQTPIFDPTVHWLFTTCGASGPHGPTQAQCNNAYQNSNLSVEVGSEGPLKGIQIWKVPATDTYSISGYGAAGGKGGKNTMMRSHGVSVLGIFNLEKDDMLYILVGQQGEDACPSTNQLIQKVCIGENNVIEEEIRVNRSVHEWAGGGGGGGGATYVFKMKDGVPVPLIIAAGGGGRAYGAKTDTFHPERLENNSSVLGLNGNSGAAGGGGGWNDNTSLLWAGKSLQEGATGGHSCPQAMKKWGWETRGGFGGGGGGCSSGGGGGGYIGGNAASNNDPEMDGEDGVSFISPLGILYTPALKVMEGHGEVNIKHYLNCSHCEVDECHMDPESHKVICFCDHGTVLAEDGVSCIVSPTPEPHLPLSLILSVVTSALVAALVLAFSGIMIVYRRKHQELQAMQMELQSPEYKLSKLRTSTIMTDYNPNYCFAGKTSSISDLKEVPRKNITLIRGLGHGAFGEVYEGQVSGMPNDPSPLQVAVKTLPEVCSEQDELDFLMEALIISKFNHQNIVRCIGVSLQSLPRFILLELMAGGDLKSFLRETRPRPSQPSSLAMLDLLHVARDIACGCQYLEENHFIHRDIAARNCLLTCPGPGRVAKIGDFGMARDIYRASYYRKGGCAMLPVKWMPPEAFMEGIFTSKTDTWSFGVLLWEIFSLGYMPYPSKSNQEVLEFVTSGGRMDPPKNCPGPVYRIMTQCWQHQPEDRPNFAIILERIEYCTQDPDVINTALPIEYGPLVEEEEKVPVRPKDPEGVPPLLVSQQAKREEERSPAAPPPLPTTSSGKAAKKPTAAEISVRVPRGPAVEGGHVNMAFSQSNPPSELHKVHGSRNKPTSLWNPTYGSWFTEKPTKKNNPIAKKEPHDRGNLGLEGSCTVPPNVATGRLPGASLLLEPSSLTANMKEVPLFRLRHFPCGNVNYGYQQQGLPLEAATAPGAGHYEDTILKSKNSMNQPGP
UniProt P31749: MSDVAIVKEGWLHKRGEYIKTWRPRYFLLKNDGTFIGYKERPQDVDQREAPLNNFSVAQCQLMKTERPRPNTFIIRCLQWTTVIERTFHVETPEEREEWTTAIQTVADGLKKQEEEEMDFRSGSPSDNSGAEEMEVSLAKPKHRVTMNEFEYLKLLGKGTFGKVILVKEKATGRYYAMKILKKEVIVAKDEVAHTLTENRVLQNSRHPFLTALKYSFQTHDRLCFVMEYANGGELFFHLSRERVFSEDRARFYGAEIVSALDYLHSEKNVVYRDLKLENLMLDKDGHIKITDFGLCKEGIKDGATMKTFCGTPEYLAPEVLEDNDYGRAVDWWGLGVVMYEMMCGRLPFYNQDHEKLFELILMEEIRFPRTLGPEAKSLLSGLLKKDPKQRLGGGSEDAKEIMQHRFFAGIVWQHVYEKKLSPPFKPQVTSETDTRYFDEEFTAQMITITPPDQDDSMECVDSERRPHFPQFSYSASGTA
UniProt P10721, whole entry: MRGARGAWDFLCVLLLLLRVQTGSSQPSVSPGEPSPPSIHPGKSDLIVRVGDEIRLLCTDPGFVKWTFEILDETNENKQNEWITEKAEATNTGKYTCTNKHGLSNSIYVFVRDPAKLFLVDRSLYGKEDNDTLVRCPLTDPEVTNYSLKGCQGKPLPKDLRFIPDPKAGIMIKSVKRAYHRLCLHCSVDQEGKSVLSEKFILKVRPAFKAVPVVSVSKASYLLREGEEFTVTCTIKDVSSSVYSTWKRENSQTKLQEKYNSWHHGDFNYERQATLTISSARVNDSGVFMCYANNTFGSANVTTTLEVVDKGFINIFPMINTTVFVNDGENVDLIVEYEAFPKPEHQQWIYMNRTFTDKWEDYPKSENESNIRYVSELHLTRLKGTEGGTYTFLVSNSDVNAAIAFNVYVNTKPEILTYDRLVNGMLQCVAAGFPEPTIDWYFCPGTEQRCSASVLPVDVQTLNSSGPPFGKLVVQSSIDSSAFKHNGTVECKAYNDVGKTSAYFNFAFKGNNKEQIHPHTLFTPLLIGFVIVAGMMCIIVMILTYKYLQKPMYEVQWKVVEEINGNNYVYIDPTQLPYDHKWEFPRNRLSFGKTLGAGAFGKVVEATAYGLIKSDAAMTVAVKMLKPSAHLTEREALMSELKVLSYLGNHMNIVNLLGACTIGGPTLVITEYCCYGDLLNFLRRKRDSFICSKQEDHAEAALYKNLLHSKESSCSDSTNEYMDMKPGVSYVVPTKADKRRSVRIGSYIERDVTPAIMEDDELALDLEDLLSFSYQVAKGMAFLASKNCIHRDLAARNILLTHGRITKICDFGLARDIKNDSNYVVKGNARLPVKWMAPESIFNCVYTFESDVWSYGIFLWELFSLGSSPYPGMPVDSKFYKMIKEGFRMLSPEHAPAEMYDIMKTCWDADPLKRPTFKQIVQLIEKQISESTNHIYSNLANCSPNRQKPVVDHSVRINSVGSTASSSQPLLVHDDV
UniProt P15056, whole entry: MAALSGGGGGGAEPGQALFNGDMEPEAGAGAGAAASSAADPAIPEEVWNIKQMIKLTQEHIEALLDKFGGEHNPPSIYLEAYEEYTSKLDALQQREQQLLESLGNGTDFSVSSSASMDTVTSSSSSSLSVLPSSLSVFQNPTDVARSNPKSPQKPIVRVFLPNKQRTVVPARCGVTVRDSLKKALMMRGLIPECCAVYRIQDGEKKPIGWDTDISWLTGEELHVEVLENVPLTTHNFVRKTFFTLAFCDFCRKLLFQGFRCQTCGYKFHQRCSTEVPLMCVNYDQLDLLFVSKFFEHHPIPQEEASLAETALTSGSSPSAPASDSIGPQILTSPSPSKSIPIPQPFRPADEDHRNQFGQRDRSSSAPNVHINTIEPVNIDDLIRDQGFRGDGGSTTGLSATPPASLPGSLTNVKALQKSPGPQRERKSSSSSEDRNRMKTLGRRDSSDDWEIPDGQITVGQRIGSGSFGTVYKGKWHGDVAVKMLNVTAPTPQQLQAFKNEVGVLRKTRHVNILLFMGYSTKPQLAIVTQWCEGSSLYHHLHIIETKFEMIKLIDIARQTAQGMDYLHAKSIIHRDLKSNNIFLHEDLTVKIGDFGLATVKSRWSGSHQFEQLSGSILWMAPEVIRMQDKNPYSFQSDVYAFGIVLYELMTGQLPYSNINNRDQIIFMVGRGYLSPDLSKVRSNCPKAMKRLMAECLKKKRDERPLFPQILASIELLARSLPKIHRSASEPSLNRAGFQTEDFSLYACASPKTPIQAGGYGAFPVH

[6] = target: ALK tyrosine kinase receptor (Homo sapiens) (UniProt Q9UM73); experiment: Inhibition of ALK (unknown origin) at 1 uM relative to control
[7] = target: RAC-alpha serine/threonine-protein kinase (Homo sapiens) (UniProt P31749); experiment: Inhibition of AKT1 (unknown origin) at 1 uM relative to control
[8] = target: T2, Tyrosine-protein kinase ZAP-70 (Homo sapiens) (UniProt P43403); experiment: Inhibition of ZAP70 (unknown origin) at 1 uM relative to control
T2 sequence (whole entry): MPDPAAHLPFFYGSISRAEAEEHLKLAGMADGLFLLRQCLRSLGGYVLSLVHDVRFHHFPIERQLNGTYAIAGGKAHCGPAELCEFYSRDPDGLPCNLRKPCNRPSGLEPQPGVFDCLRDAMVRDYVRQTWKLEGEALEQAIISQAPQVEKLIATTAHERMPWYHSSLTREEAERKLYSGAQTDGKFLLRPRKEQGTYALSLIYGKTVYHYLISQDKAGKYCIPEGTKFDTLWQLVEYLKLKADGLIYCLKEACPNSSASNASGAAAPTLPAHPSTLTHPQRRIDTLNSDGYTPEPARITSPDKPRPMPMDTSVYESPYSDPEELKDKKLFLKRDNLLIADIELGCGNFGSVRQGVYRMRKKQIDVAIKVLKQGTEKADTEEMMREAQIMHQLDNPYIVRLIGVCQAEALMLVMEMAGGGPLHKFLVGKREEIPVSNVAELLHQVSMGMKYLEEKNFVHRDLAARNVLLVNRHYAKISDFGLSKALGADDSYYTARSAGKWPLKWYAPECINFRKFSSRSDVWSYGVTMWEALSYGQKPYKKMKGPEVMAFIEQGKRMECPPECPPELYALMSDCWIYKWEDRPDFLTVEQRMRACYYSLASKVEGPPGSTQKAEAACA

[9] = target: T3, Serine/threonine-protein kinase Chk1 (Homo sapiens) (UniProt O14757); experiment: Inhibition of CHK1 (unknown origin) at 1 uM relative to control
T3 sequence (whole entry): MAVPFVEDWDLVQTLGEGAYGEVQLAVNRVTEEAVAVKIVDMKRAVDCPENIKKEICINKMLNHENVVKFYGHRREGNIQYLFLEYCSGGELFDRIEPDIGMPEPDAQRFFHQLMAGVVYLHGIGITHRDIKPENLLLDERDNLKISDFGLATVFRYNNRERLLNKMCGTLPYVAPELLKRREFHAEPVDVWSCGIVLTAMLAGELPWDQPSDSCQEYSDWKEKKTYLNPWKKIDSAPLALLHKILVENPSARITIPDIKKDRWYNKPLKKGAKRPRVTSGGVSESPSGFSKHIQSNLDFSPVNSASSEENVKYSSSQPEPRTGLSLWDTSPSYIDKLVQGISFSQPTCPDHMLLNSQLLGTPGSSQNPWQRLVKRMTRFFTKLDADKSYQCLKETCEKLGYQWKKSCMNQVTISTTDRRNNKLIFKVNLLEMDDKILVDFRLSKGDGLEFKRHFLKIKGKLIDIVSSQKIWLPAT

[10] = target: Mast/stem cell growth factor receptor Kit (Homo sapiens) (UniProt P10721); experiment: Inhibition of KIT (unknown origin) at 1 uM relative to control
[11] = target: Serine/threonine-protein kinase B-raf (Homo sapiens) (UniProt P15056); experiment: Inhibition of BRAF (unknown origin) at 1 uM relative to control

inhibition [1]: 8%
inhibition [2]: 2%
inhibition [3]: 85%
inhibition [4]: 5%
inhibition [5]: 98%
inhibition [6]: 97%
inhibition [7]: 10%
inhibition [8]: 4%
inhibition [9]: 33%
inhibition [10]: 27%
inhibition [11]: 43%
SMILES: CP(C)(=O)c1ccccc1Nc1nc(Nc2ccc(C(=O)NC3CCOCC3)cc2)ncc1Cl
